According to paper PMC6172466 (EMBO Reports, 2018):

Molecular target: T1, N-terminally TAMRA-labeled monoubiquitin (UniProt P0CG48 1-76, TAMRA on the N-terminus)
T1 construct: ubiquitin with a free C-terminus; also called TAMRA-monoubiquitin; ubiquitin labeled with an N-terminal fluorophore
Assay: fluorescence polarisation; equilibrium binding of USP4 to TAMRA-labelled ubiquitin species; as described in ref. 32
Details: both partners purified

B1: USP4 (8-925) wild-type (enzyme, human, UniProt Q13107 8-925, looked up)
chain: RERPDAETQKSELGPLMRTTLQRGAQWYLIDSRWFKQWKKYVGFDSWDMYNVGEHNLFPGPIDNSGLFSDPESQTLKEHLIDELDYVLVPTEAWNKLLNWYGCVEGQQPIVRKVVEHGLFVKHCKVEVYLLELKLCENSDPTNVLSCHFSKADTIATIEKEMRKLFNIPAERETRLWNKYMSNTYEQLSKLDNTVQDAGLYQGQVLVIEPQNEDGTWPRQTLQSKSSTAPSRNFTTSPKSSASPYSSVSASLIANGDSTSTCGMHSSGVSRGGSGFSASYNCQEPPSSHIQPGLCGLGNLGNTCFMNSALQCLSNTAPLTDYFLKDEYEAEINRDNPLGMKGEIAEAYAELIKQMWSGRDAHVAPRMFKTQVGRFAPQFSGYQQQDSQELLAFLLDGLHEDLNRVKKKPYLELKDANGRPDAVVAKEAWENHRLRNDSVIVDTFHGLFKSTLVCPECAKVSVTFDPFCYLTLPLPLKKDRVMEVFLVPADPHCRPTQYRVTVPLMGAVSDLCEALSRLSGIAAENMVVADVYNHRFHKIFQMDEGLNHIMPRDDIFVYEVCSTSVDGSECVTLPVYFRERKSRPSSTSSASALYGQPLLLSVPKHKLTLESLYQAVCDRISRYVKQPLPDEFGSSPLEPGACNGSRNSCEGEDEEEMEHQEEGKEQLSETEGSGEDEPGNDPSETTQKKIKGQPCPKRLFTFSLVNSYGTADINSLAADGKLLKLNSRSTLAMDWDSETRRLYYDEQESEAYEKHVSMLQPQKKKKTTVALRDCIELFTTMETLGEHDPWYCPNCKKHQQATKKFDLWSLPKILVVHLKRFSYNRYWRDKLDTVVEFPIRGLNMSEFVCNLSARPYVYDLIAVSNHYGAMGVGHYTAYAKNKLNGKWYYFDDSNVSLASEDQIVTKAAYVLFYQRRDD
notes: human USP4, residues 8-925; also called USP4 WT; the wild-type enzyme
B1 was tested, and the Kd was 92 ± 21 nM.
